Assay results reported in patent publication US9868720B2 (Genentech, Inc., priority 2013, dated 2018).

Sequences of proteins named here, by UniProt entry; tags and fusion partners are left off. Residues count along the entry.
UniProt Q12852, 1-520: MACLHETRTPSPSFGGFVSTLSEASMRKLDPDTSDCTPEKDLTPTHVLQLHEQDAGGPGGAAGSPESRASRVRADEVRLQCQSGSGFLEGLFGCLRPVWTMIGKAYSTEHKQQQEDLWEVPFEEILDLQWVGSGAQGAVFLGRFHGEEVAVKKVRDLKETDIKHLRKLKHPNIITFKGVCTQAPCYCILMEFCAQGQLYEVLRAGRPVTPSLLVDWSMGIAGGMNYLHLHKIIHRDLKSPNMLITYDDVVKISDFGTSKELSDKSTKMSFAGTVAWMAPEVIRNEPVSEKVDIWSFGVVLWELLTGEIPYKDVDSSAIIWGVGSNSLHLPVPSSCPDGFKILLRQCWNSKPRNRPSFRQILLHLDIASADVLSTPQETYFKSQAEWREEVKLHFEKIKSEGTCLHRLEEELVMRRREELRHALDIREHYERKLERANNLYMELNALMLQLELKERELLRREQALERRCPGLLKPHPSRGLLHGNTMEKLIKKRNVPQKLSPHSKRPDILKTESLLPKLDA

Biological target: DLK kinase (N-terminally GST-tagged DLK, catalytic domain amino acid 1-520) (Homo sapiens (Human), UniProt Q12852)
Assay: DLK TR-FRET assay
Assay type: biochemical
Details: 30 μM ATP, MKK4 K131M substrate, read-out: DLK HTRF (Ki)
Protocol: DLK TR-FRET assay: DLK kinase reactions (20 μL) containing 5 nM N-terminally GST-tagged DLK (catalytic domain amino acid 1-520) (Carna Bioscience), 40 nM N-terminally HIS-tagged MKK4 K131M substrate, and 30 μM ATP in kinase reaction buffer (50 mM HEPES, pH 7.5, 0.01% Triton X-100, 0.01% Bovine γ-Globulins, 2 mM DTT, 10 mM MgCl2 and 1 mM EGTA), and testing compound 1:3 serial diluted starting at 20 uM were incubated at ambient temperature for 60 minutes in 384 well OptiPlate (Perkin Elmer). To quench kinase reactions and detect phosphorylated MKK4, 15 μL of TR-FRET antibody mixture containing 2 nM anti-phosphorylated MKK4 labeled with Europium cryptate (Cisbio) and 23 nM anti-HIS labeled with D2 (Cisbio) in detection buffer (25 mM Tris pH 7.5, 100 mM NaCl, 100 mM EDTA, 0.01% Tween-20, and 200 mM KF) was added to the reaction mixture. The detection mixture was incubated for 3 hours at ambient temperature and the TR-FRET was detected with an EnVision multilabel plate reader (Perkin-Elmer) using the LANCE/DELFIA Dual Enh label from Perkin-Elmer (excitation filter: UV2 (TRF) 320 and emission filters: APC 665 and Europium 615).

Ki [nM] | SMILES
2.43 | FC1(F)CCN(c2nc(Nc3cc(C(F)(F)F)ccn3)cc(C3CCNCC3)n2)C1 [Example 92, [2-(3,3-Difluoro-pyrrolidin-din-1-yl)-6-piperidin-4-yl-pyrimidin-4-yl]-(4-tri-fluoromethyl-pyridin-2-yl)-amine]
15.3 | N#CCC(=O)N1CCC(c2cc(Nc3cc(C(F)(F)F)ccn3)nc(N3CCCC3)n2)CC1 [Example 161, 3-Oxo-3-{4-[2-pyrrolidin-1-yl-6-(4-trifluoromethyl-pyridin-2-ylamino)-pyrimidin-4-yl]-piperidin-1-yl}-propionitrile]
